Data reported in PubChem BioAssay AID492956 (The Scripps Research Institute Molecular Screening Center, 2010).
This is a selection; strong and weak results do not stand in their true shares. Active and inactive are the calls of the source.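 Rule for the calls: active = inhibition above the mean over all tested compounds plus 3 SD (cut at about 30% in these data); inactive = the rest.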

What follows are compounds tested against Platelet-activating factor acetylhydrolase 2, cytoplasmic (Homo sapiens) (UniProt Q99487) (assay: PAFAH2 enzyme inhibitors, primary screen, biochemical, fluorescence polarization, human (AID 492956;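 note: inhibitors block probe labeling of enzyme so polarization drops; 0% = enzyme with DMSO and 100% = wells lacking PAFAH2 protein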)). Settings: recombinant PAFAH2, FP-rhodamine activity probe, at 3.39 µM, active compounds read high.

| Structure (SMILES) | inhibition |
| --- | --- |
| CCOC(=O)c1ccc(NP(C)(=O)Oc2ccc(F)cc2)cc1 (stereo not given) | inactive: -4.78% |
| COc1ccc(OP(C)(=O)Nc2ccc(SC(F)(F)F)cc2)cc1 (stereo not given) | inactive: 14.3% |
| CP(=O)(Nc1ccccc1)Oc1ccc(F)cc1 (stereo not given) | inactive: 3.75% |
| O=[N+]([O-])c1cc([N+](=O)[O-])c(OC2CCCCC2O)c([N+](=O)[O-])c1 (stereo not given) | inactive: 7.31% |
| CCCCCOc1ccc(NP(C)(=O)Oc2ccc(Cl)cc2Cl)cc1 (stereo not given) | inactive: -0.43% |
| Cc1c([N+](=O)[O-])cc([N+](=O)[O-])c(Br)c1[N+](=O)[O-] | inactive: -9.03% |
| CCN(CC)CCCOC(=O)C(O)(c1ccccc1)C1CCCCC1 (stereo not given) | inactive: -2.35% |
| CN(C)CCOC(=O)C(O)(c1ccccc1)C1CCCCC1 (stereo not given) | inactive: 0.87% |
| COc1ccc(NP(C)(=O)Oc2ccccc2OC)cc1 (stereo not given) | inactive: 8.93% |
| COc1ccc(OP(C)(=O)Nc2cccc(Br)c2)cc1 (stereo not given) | inactive: 2.39% |
| Cc1c(C(c2ccc3c(c2)OCO3)c2c(C)n(C)n(-c3ccccc3)c2=O)c(=O)n(-c2ccccc2)n1C.O=[N+]([O-])c1cc([N+](=O)[O-])c(O)c([N+](=O)[O-])c1 | inactive: 13.8% |
| O=[N+]([O-])c1ccc(OP2(=O)COCCO2)cc1 (stereo not given) | inactive: 6.93% |
| Cc1cc(-c2cccc3ccccc23)c(C)cn1.O=[N+]([O-])c1cc([N+](=O)[O-])c(O)c([N+](=O)[O-])c1 | inactive: -1.57% |
| O=[N+]([O-])c1cc([N+](=O)[O-])c(NCC2CCS(=O)(=O)C2)c([N+](=O)[O-])c1 (stereo not given) | inactive: -6.37% |
| CCOP(C)(=S)SCC(=O)NC(C)(CC)C(=O)O (stereo not given) | inactive: -20.4% |
| CP(=O)(Nc1ccc(SC(F)(F)F)cc1)Oc1ccc(F)cc1 (stereo not given) | inactive: -2.99% |
| Cc1ccccc1NP(C)(=O)Nc1ccccc1C | inactive: -5.65% |
| CP(=O)(Nc1ccc2c(c1)OCCO2)Oc1ccccc1 (stereo not given) | inactive: -1.3% |
| O=C(OCCCN1CCCC1)C(O)(c1ccccc1)C1CCCCC1 (stereo not given) | inactive: -5.42% |
| COc1ccccc1OP(C)(=O)Nc1c(C)n(C)n(-c2ccccc2)c1=O (stereo not given) | inactive: -10.9% |
| CCc1ccc(OP(C)(=O)Nc2cccnc2)cc1 (stereo not given) | inactive: -0.1% |
| CP(=O)(Oc1ccccc1)N1CCOC1=O (stereo not given) | inactive: 1.1% |
| COc1ccc(OP(C)(=O)Nc2ccc(Br)cc2)cc1 (stereo not given) | inactive: 6.35% |

| Structure (SMILES) | inhibition |
| --- | --- |
| CCN(CC)CC(O)COC(=O)C(O)(c1ccccc1)C1CCCCC1 (stereo not given) | inactive: 5.71% |
| CN(C)C(=O)c1c([N+](=O)[O-])cc([N+](=O)[O-])cc1[N+](=O)[O-] | inactive: -2.24% |
| CC(C)(C)c1ccc(OP(C)(=O)O)cc1 | inactive: -6.1% |
| COc1ccccc1OP(C)(=O)Nc1ccccc1Br (stereo not given) | inactive: -3.71% |
| CP(=O)(Nc1ccc(Cl)cc1)Oc1ccc(F)cc1 (stereo not given) | inactive: 2.66% |
| CCOC(=O)c1ccc(NP(C)(=O)Oc2ccc(Cl)cc2)cc1 (stereo not given) | inactive: 4.65% |
| CP(=O)(OC12CC3CC(CC(C3)C1)C2)OC12CC3CC(CC(C3)C1)C2 | inactive: 2.1% |
| COc1ccccc1OP(C)(=O)Nc1ccc(C)c(C)c1 (stereo not given) | inactive: 5.76% |
| COc1ccc(OP(C)(=O)Nc2ccccc2Br)cc1 (stereo not given) | inactive: 3.22% |
| Cc1cc(C)cc(OP(C)(=O)Nc2cccc(C(F)(F)F)c2)c1 (stereo not given) | inactive: 0.24% |
| O=C1C(O)=C([N+](=O)[O-])C(=O)C(O)=C1[N+](=O)[O-] | inactive: 4.74% |
| CP(=O)(OCCOc1ccccc1)OCCOc1ccccc1 | inactive: -2.64% |
| CP(=O)(Nc1ccc(Cl)cc1Cl)Oc1ccccc1 (stereo not given) | inactive: 0.78% |
| CCCCCCCCCCCCCCCC1C[N+](C)(C)CCOP(C)(=O)O1 (stereo not given) | inactive: 2.82% |
| COc1ccc(OP(C)(=O)Nc2ccccn2)cc1 (stereo not given) | inactive: -1.88% |
| CN(C)CCOC(=O)C(O)(c1ccccc1)C1CCCC1 (stereo not given) | inactive: 0.98% |
| COc1ccccc1OP(C)(=O)Nc1ccc(Br)cc1 (stereo not given) | inactive: -7.81% |
| COc1ccccc1OP(C)(=O)Nc1ccc(C)cc1C (stereo not given) | inactive: -3.05% |
| CP(=O)(Nc1ccccn1)Oc1ccccc1 (stereo not given) | inactive: 2.85% |
| CCc1ccc(OP(C)(=O)O)cc1 | inactive: -1.37% |
| O=[N+]([O-])c1cc([N+](=O)[O-])c(Nc2ccccn2)c([N+](=O)[O-])c1 | inactive: 9.63% |
| Cc1c(NP(C)(=O)Oc2ccc(C(C)C)cc2)c(=O)n(-c2ccccc2)n1C (stereo not given) | inactive: 4.36% |
